Experimental data from patent publication US6448062B1, “Simultaneous cleaning and decontaminating compositions and methods” (priority 1998, dated 2002).

Experiments:
[1] = system: Azocasein; experiment: Azocasein hydrolysis (Abs390) by human trypsin or chymotrypsin in PAA/H2O2
[2] = system: Azocasein; experiment: Azocasein substrate method (Novo Nordisk): Alcalase activity in 7.5% H2O2

Molecule: Trypsin: human trypsin (Sigma)
- Absorbance Ratio of Trypsin/Trypsin-0.2% PAA/1.05% H2O2 solutions ([1]; 2.8 h): 0.86
- Absorbance Ratio of Trypsin/Trypsin-0.2% PAA/1.05% H2O2 solutions ([1]; 7 h): 0.77

B1: Alcalase ® 2.5 L: commercial subtilisin A liquid concentrate, 2.5 Anson units per gram (Novo Nordisk) (protein, UniProt P00780 106-379, looked up)
Subtilisin Carlsberg: AQTVPYGIPLIKADKVQAQGFKGANVKVAVLDTGIQASHPDLNVVGGASFVAGEAYNTDGNGHGTHVAGTVAALDNTTGVLGVAPSVSLYAVKVLNSSGSGSYSGIVSGIEWATTNGMDVINMSLGGASGSTAMKQAVDNAYAKGVVVVAAAGNSGSSGNTNTIGYPAKYDSVIAVGAVDSNSNRASFSSVGAELEVMAPGAGVYSTYPTNTYATLNGTSMASPHVAGAAALILSKHPNLSASQVRNRLSSTATYLGSSFYYGKGLINVEAAAQ
modifications: commercial liquid concentrate
- Alcalase activity ([2]; 7.5% w/w H2O2, pH 3.9 unadjusted, 3.5 min): 0.82 AU/ml
- Alcalase activity ([2]; 7.5% w/w H2O2, pH 3.9 unadjusted, 120 min): 0.19 AU/ml
- Alcalase activity ([2]; 7.5% w/w H2O2, pH 3.9 unadjusted, 240 min): 0.35 AU/ml
- Alcalase activity ([2]; 7.5% w/w H2O2, pH 8.5 adjusted in 0.2 M Tris buffer, 30 min): 0.20 AU/ml
- Alcalase activity ([2]; 7.5% w/w H2O2, pH 8.5 adjusted in 0.2 M Tris buffer, 120 min): 0.31 AU/ml
- Alcalase activity ([2]; 7.5% w/w H2O2, pH 8.5 adjusted in 0.2 M Tris buffer, 240 min): 0.56 AU/ml
